{"sequences": {"note": "The chains behind the UniProt entries cited, without tags or fusion partners.", "UniProt O15492, whole entry, looked up": "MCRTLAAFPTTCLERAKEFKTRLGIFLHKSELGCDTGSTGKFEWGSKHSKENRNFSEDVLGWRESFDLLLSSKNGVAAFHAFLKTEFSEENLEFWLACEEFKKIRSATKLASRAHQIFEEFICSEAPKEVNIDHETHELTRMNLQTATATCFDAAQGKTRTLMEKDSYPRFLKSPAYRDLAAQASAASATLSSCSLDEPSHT", "UniProt P09471, whole entry, looked up": "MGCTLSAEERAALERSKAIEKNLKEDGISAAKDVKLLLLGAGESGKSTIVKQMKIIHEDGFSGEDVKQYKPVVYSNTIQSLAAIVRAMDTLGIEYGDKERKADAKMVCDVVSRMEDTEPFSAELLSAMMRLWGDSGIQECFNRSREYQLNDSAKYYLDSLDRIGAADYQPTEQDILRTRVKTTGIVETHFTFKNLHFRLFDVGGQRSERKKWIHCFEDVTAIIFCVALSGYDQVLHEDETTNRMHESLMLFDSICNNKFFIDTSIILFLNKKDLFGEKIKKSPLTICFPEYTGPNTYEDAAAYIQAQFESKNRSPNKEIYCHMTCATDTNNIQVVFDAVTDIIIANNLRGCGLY"}, "source": "PubChem BioAssay AID1441", "about": "(NMMLSC, 2008)", "note": "The list shows a part of the results, in another mix than the full data. Activity calls are given as the source filed them. The rule behind the calls is not given here.", "data": [{"target": "Regulator of G-protein signaling 16 (Homo sapiens) + Guanine nucleotide-binding protein G(o) subunit alpha (Homo sapiens) (UniProt O15492+P09471)", "assay": "modulators of RGS16 binding to Galphao, primary screen, biochemical, human proteins, multiplexed bead flow cytometry (AID 1441);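 note: Galphao activated by GDP with aluminum fluoride before binding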", "conditions": "bead-based flow cytometry RGS16-Galphao binding, fluorescence; at 10 µM; actives lie on both sides", "values": [{"smiles": "CCCOc1ccc(C)cc1CN(CCCl)CCCl", "binding response (% of control)": "inactive: 93.1%"}, {"smiles": "CCC(CO)(C(=O)OC1CN2CCC1CC2)c1ccccc1", "note": "(centres undefined)", "binding response (% of control)": "inactive: 95.1%"}, {"smiles": "COc1cc(OC)cc(C(=O)NCC2(N3CCOCC3)CCCCC2)c1", "binding response (% of control)": "inactive: 100%"}, {"smiles": "CC(C)(C)OC(=O)N1CCC(Nc2ccccc2)CC1", "binding response (% of control)": "inactive: 93.4%"}, {"smiles": "CCOc1ncccc1C(=O)NCC1(N2CCOCC2)CCCCC1", "binding response (% of control)": "inactive: 188%"}, {"smiles": "CN(C)c1ccc(C(=O)NCC2(N3CCCCC3)CCCCC2)cc1", "binding response (% of control)": "inactive: 95.4%"}, {"smiles": "CCN1CCC(Nc2cccc(F)c2)CC1", "binding response (% of control)": "inactive: 106%"}, {"smiles": "Fc1ccccc1NC1CCN(Cc2ccccc2)CC1", "binding response (% of control)": "inactive: 84.8%"}, {"smiles": "c1ccc(CN2CCC(Nc3ccccc3)CC2)cc1", "binding response (% of control)": "inactive: 96.6%"}, {"smiles": "N#Cc1ccc(C(=O)NCC2(N3CCCCC3)CCCCC2)cc1", "binding response (% of control)": "inactive: 109%"}, {"smiles": "O=C(OC1CN2CCC1CC2)C1c2ccccc2C=Cc2ccccc21", "note": "(centres undefined)", "binding response (% of control)": "inactive: 85%"}, {"smiles": "N/C(=N\\O)c1c(N)no[n+]1[O-]", "binding response (% of control)": "inactive: 102%"}, {"smiles": "COc1ccc(C(=O)NCC2(N3CCOCC3)CCCCC2)cc1OC", "binding response (% of control)": "inactive: 103%"}, {"smiles": "CN(C)c1cccc(C(=O)NCC2(N3CCCCC3)CCCCC2)c1", "binding response (% of control)": "inactive: 94.3%"}, {"smiles": "COc1ccc(CN(CCCl)CCCl)cc1Cl", "binding response (% of control)": "inactive: 98.9%"}, {"smiles": "CC(C)c1ccc(NC2CCN(C(=O)OC(C)(C)C)CC2)cc1", "binding response (% of control)": "inactive: 105%"}, {"smiles": "COc1ccc(NC2CCN(C(=O)OC(C)(C)C)CC2)cc1", "binding response (% of control)": "inactive: 97.7%"}, {"smiles": "CN1CCN(CCOC(=O)C(O)(c2ccccc2)c2ccccc2)CC1", "binding response (% of control)": "inactive: 101%"}, {"smiles": "O=C(NCC1(N2CCOCC2)CCCCC1)c1cc(=O)[nH]c2ccccc12", "binding response (% of control)": "inactive: 104%"}, {"smiles": "O=C(NCC1(N2CCCCC2)CCCCC1)c1cccc([N+](=O)[O-])c1", "binding response (% of control)": "inactive: 98.6%"}, {"smiles": "N#CC1(Nc2ccccc2)CCN(CCc2ccccc2)CC1", "binding response (% of control)": "inactive: 104%"}, {"smiles": "Cc1ccc(OCC(C)C)c(CN(CCCl)CCCl)c1", "binding response (% of control)": "inactive: 101%"}, {"smiles": "COc1ccc(NC2CCN(CCc3ccccc3)CC2)c(OC)c1", "binding response (% of control)": "inactive: 106%"}, {"smiles": "CCOc1ccc(C)cc1CN(CCCl)CCCl", "binding response (% of control)": "inactive: 104%"}, {"smiles": "CCOC(=O)N1CCC(Nc2ccc(OC)cc2)CC1", "binding response (% of control)": "inactive: 103%"}, {"smiles": "O=C(OC1CN2CCC1CC2)C1c2ccccc2Oc2ccccc21", "note": "(centres undefined)", "binding response (% of control)": "inactive: 102%"}, {"smiles": "N#CC1(Nc2ccccc2)CCN(Cc2ccccc2)CC1", "binding response (% of control)": "inactive: 103%"}, {"smiles": "O=C(NCC1(N2CCOCC2)CCCCC1)c1cc2ccccc2o1", "binding response (% of control)": "inactive: 328%"}, {"smiles": "COc1ccc(C(=O)NCC2(N3CCCCC3)CCCCC2)c(OC)c1OC", "binding response (% of control)": "inactive: 101%"}]}]}
